Broadly, the Ki is a dissociation constant, usually derived from enzyme kinetics or from competition with a known ligand. Read a high Ki as lower affinity.

One assay deals with T1, Interstitial collagenase (Homo sapiens, UniProt P03956).
T1 sequence (P03956 whole entry): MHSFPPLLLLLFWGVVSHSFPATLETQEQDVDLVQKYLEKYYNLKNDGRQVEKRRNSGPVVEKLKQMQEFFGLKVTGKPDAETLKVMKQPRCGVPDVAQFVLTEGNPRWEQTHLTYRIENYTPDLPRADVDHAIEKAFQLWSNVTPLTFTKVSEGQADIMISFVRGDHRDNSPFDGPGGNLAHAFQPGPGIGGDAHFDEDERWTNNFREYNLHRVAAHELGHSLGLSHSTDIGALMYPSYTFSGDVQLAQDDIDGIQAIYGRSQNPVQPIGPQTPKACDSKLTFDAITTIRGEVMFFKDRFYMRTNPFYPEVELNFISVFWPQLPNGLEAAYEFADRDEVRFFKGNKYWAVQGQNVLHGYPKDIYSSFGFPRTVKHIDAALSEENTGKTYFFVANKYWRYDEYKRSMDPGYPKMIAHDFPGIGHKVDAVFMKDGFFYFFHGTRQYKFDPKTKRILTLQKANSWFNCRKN
Nature of the assay: Enzyme Inhibition Assay. As to conditions: pH 7.5; 25 °C.

The target of another assay is Collagenase 3 (Homo sapiens, UniProt P45452). The experiment in a line: Enzyme Inhibition Assay.

For `O=C(NO)C1(S(=O)(=O)c2ccc(Oc3ccc(Cl)cc3)cc2)CCOCC1` [4-{[4-(4-chlorophenoxy)benzene]sulfonyl}-N-hydroxyoxane-4-carboxamide], the results for the Ki at Interstitial collagenase and at Collagenase 3 were 435 nM and 0.15 nM, respectively.

(Values after BindingDB's records for doi:10.1021/jm0500875 (Pfizer, 2005).)
